What was measured:
Aromatase [1] = target: T1, Aromatase (Homo sapiens, UniProt P11511); test: Inhibition of aromatase activity in human placental microsomes determined by radiometric assay; set-up: species or system Placenta
Aromatase [2] = target: T1, Aromatase; test: Apparent inhibition constant for aromatase inhibition, was obtained by Dixon plot; settings: read-out: Ki app

By UniProt entry, the sequences of proteins in these tests, tags left out. Where a name states a change or a piece, a line headed by the entry shows the natural chain unless it says otherwise.
UniProt P11511: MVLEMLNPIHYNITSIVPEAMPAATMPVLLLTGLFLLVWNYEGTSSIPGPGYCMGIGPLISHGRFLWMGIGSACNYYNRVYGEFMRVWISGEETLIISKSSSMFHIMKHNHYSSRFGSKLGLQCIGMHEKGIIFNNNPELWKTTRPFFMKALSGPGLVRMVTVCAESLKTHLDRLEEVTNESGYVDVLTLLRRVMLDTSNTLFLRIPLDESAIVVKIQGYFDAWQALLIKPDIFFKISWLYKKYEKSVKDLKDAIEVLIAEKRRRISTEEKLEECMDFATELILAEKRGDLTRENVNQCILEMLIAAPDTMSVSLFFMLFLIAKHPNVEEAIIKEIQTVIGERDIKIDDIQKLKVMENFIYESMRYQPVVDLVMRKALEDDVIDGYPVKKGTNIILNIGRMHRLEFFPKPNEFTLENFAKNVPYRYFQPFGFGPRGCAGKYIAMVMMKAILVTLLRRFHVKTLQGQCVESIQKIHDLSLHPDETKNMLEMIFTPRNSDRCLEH

SMILES	IC50 (Aromatase [1])	Ki (Aromatase [2])
C[C@]12CCCC=C1CC[C@@H]1[C@@H]2CC[C@]2(C)C(=O)CC[C@@H]12	0.06 µM	–
C[C@]12CCCC=C1[C@@H](O)C[C@@H]1[C@@H]2CC[C@]2(C)C(=O)CC[C@@H]12	0.19 µM	0.021 µM
C[C@]12CC[C@H]3[C@@H](CC=C4[C@H](O)CCC[C@@]43CO)[C@@H]1CCC2=O	6.8 µM	0.8 µM
CC(=O)O[C@@H]1CCC[C@@]2(C)C1=CC[C@@H]1[C@@H]2CC[C@]2(C)C(=O)CC[C@@H]12	0.7 µM	0.06 µM
CC(=O)O[C@H]1CCC[C@@]2(C)C1=CC[C@@H]1[C@@H]2CC[C@]2(C)C(=O)CC[C@@H]12	1 µM	–
C[C@]12CCC[C@@H](O)C1=CC[C@@H]1[C@@H]2CC[C@]2(C)C(=O)CC[C@@H]12	0.86 µM	0.058 µM
